Molecular target: cereblon (CRBN) (Homo sapiens, UniProt Q96SW2)
Experiment: In vitro CRBN binding assay (AlphaScreen, competitive inhibition of the PROTAC assay)
Conditions: read-out: Alpha IC50, Table 1, PROTAC Optimization Kit for BET Bromodomain-Cereblon Binding

SMILES: Cc1cccc(S(=O)(=O)Nc2cccc(C3CCC(=O)NC3=O)c2)c1 (stereo not shown) [AEV40069]
- IC50: 1290 nM

— patent EP4692061A1, “LOW-MOLECULAR-WEIGHT COMPOUND HAVING CEREBLON-BINDING ACTIVITY, AND USE THEREOF” (Aevis Bio, Inc., priority 2023, dated 2024)
